Laboratory results as given in patent US20250011788A1, “NUCLEIC ACID INTERFERENCE PHARMACEUTICAL COMPOSITION, AND DRUG FOR TREATING COLORECTAL CANCER, GASTRIC CANCER, AND PROSTATE CANCER” (SIRNAOMICS BIOPHARMACEUTICALS (SUZHOU) CO., LTD., priority 2022, published 2025).

System: MKN45 cells tumor xenograft
Assay: Mouse subcutaneous tumor xenograft model of gastric cancer MKN45 cells
Conditions: STP500 3 mg/kg i.v. Q2D, Oxaliplatin 7.5 mg/kg i.p. QD

For O=C1[O][Pt]2([NH][C@@H]3CCCC[C@H]3[NH]2)[O]C1=O [Oxaliplatin], the “effect on the weight of mice” value was “decreased”.
